Test results published in US5861426A, “Nitro compounds of the formula A-Xi -NO2 and their compositions having anti-inflammatory, analgesic and anti-thrombotic activities” (Nicox S.A., priority 1994, dated 1999).

Assays:
Swiss mice = assay: Analgesic activity (Hendershot et al.); format: in vivo; conditions: oral 3 to 30 mg/Kg in carboxymethylcellulose, natural product = 1.0
carrageenin-oedema = assay: Anti-inflammatory activity, carrageenin-oedema method; format: in vivo; conditions: rats, oral 3 to 30 mg/Kg in carboxymethylcellulose; natural product = 1.0
cyclo-oxygenase = assay: Anti-cyclooxygenase activity; format: cell-based; conditions: in vitro, 10^-5 to 10^-7 molar range; natural product = 1.0
[1] = test system: human platelets stimulated by thrombin; assay: Platelet anti-aggregating activity in vitro; format: cell-based; conditions: 10^-5 to 10^-7 molar range, natural product = 1.0
gastropathy = assay: Gastric tolerance, severity of induced gastropathy; conditions: rats, oral 3 to 30 mg/Kg in carboxymethylcellulose; natural product = 1.0

CC(=O)Oc1ccccc1C(=O)O [ASPIRIN, acetylsalicylic acid, reference compound]
1.0: analgesic properties (II), potency ratio versus natural reference product (Swiss mice) | anti-inflammatory properties (I), potency ratio versus natural reference product (carrageenin-oedema) | anti-cyclooxygenase (I), potency ratio versus natural product (cyclo-oxygenase) | platelet anti-aggregating (II), potency ratio versus natural product [1] | gastrointestinal tolerance (III) (toxicity), potency ratio versus natural reference product (gastropathy)
